## Yeast mating assay B: variants of the scFv Ab-14

Source: Li et al. 2023 (doi:10.1038/s41467-023-39022-2), MIT Lincoln Laboratory and A-Alpha Bio; data file from the FLAb repository.

Antigen: PDVDLGDISGINAS, a 14-residue peptide of the SARS-CoV-2 spike HR2 region.

The variants keep the heavy chain, the linker and the frameworks of Ab-14 (scFv order VH, a 15-residue (Gly4Ser)3 linker, VL).
VH: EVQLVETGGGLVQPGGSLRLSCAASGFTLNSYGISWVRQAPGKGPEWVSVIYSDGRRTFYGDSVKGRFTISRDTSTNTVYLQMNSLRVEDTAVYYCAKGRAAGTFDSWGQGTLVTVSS
VL: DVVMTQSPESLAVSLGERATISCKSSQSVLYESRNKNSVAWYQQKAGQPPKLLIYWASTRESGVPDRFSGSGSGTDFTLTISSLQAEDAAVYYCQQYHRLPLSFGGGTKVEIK

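These sequences belong to a second round, designed from the earlier measurements on random variants of the parent. Several design methods are mixed in this list. In AlphaSeq, yeast of one mating type display the scFv and yeast of the other type display the target. After mating in shaken culture at 30 °C for 16 h, diploids were selected and their barcode pairs sequenced. Scores were corrected for input abundance and mapped to Kd with protein pairs of known affinity run in the same pool. The assay was run in six technical replicates.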

Variants are written as CDR1, CDR2 and CDR3 of the light chain (limits as in the source). Parent: KSSQSVLYESRNKNSVA, WASTRES, QQYHRLPLS.
This list holds designs with at most six substitutions.
Each Kd is an estimate from the mating assay, the geometric mean of the replicates in which the pair was seen; lower is stronger.
A pair that was not seen in any replicate is written "nd"; this usually means weak binding, but a binder can also be missed.
The range of this assay differs from that of the first round, and the authors advise against merging the two.

With KSQQSVLYESTNKNSVA | WASTPES | QQYHRLPLS the result was nd (0 of 6 replicates; controls 0 of 18). With HLSQSVLYESRNKNSVA | DASTRCS | QQYHRLPLS the result was 440 pM (6 of 6 replicates; controls 1 of 18). With KIQQSELYESRNKNSVA | NASTRMS | QQYHRLPLS the result was 500 pM (6 of 6 replicates; controls 1 of 18). Variant KSSQSVAYESRNKNSVA | WASTRET | QQYHVLPLS showed 52 nM (6 of 6 replicates; controls 0 of 18). With HLSWQVLYESRNKNSVA | NASTRES | QQYHRLPLS the result was 1.5 nM (6 of 6 replicates; controls 1 of 18). Variant KSSQSVLYESRNTNSVA | KASTRES | QQYHRLPLS showed 180 nM (6 of 6 replicates; controls 0 of 18). With KMSQQGLYESRNKNSVA | WASTRES | QQYHRLPLS the result was 2.6 nM (6 of 6 replicates; controls 0 of 18).

For KYYPSYLYESRNKNSVA | QASTRES | QQYHKLPLS, the assay gave 8.3 nM (6 of 6 replicates; controls 0 of 18). Variant KVSQSFLYESRNKNAVA | GASTRES | QQYHRLELS gave 12 nM (6 of 6 replicates; controls 3 of 18). For KSSQSVLDESSNKNSVA | WASTRES | QQYHRLPLS, the assay gave 3.0 nM (6 of 6 replicates; controls 2 of 18). With KLPQSQLYESRNKNSVA | AASTRES | QQYHRLPLS the result was 1.7 nM (6 of 6 replicates; controls 2 of 18). With KVSQSQLYESRNKNNVA | HASTRES | QQYHRLPLS the result was 640 pM (6 of 6 replicates; controls 0 of 18). Variant KLSQSVLYESRNANNVA | NASTRES | QQYHRLPLS showed 290 pM (6 of 6 replicates; controls 1 of 18). Variant KLSQSMGYESRNKNSVA | NASQRES | QQYHRLPLS gave 660 pM (6 of 6 replicates; controls 0 of 18).

With KSRQSVLYESRNKNSVA | WASTRES | QQYHRVPLS the result was nd (0 of 6 replicates; controls 0 of 18). With KLSQQYLYESRNKNSVA | NASTRES | QQYHRLPLS the result was 2.3 nM (6 of 6 replicates; controls 2 of 18). With KSSMSEWYESRNKNSVA | TASTRES | QQYHRIPLS the result was 27 nM (5 of 6 replicates; controls 0 of 18). Variant HSSQSVLYDSRNENSVA | WASTRES | QQYPRLPLS showed nd (0 of 6 replicates; controls 1 of 18). Variant YLSQSVQYESRNKNSVA | NASTREY | QQYHRLPLM gave 85 nM (6 of 6 replicates; controls 0 of 18). Variant KVSQSVLYESRNKNSVA | QGSTRES | QQYHRLPLS showed 810 pM (6 of 6 replicates; controls 1 of 18). With KSSDSGLYESRNKNSVA | EASTRES | QQYHRLPLS the result was 980 pM (6 of 6 replicates; controls 0 of 18).

For KSSQSVLYESRNKNSVA | WASLRES | QQYHRLPLS, the assay gave nd (0 of 6 replicates; controls 0 of 18). Variant KVSQSVLGESRNKNSVA | WANTRES | QQYQRLPLS gave 3.0 nM (6 of 6 replicates; controls 2 of 18). Variant KLQQSWLYESRNKNSVA | NASTRES | QDYHRLPLS showed 710 pM (6 of 6 replicates; controls 3 of 18). Variant KLSQSVLYESRNKNSVA | WASTRES | QQYHALPLS gave 3.8 nM (6 of 6 replicates; controls 0 of 18). With KNSQSVLYEERNKNSVA | WASTRES | QQYHRLPLS the result was 130 nM (1 of 6 replicates; controls 0 of 18). Variant KLQQSHLYESRNKNSVA | NASYRES | QQYHRLPLS gave 690 pM (6 of 6 replicates; controls 1 of 18). Variant KIYQSGPYESRNKNSVA | SASTRSS | QQYHRLPLS showed 4.1 nM (6 of 6 replicates; controls 1 of 18).

For KSSESYLYESRNKNSVA | EASTREQ | QQYHRLPLS, the assay gave 980 pM (6 of 6 replicates; controls 1 of 18). Variant KVSQSEDYQSRNKWSVA | NASTRES | QQYHRLPLS gave 7.0 nM (6 of 6 replicates; controls 1 of 18). Variant KSSQSKLYESRNKNSVA | WASTRES | QQHHRLPLR showed 16 nM (6 of 6 replicates; controls 0 of 18).

The 4 strongest on average among those seen in every replicate, once more:

With KLSQSVLYESRNANNVA | NASTRES | QQYHRLPLS the result was 290 pM (6 of 6 replicates; controls 1 of 18).
With HLSQSVLYESRNKNSVA | DASTRCS | QQYHRLPLS the result was 440 pM (6 of 6 replicates; controls 1 of 18).
With KIQQSELYESRNKNSVA | NASTRMS | QQYHRLPLS the result was 500 pM (6 of 6 replicates; controls 1 of 18).
With KVSQSQLYESRNKNNVA | HASTRES | QQYHRLPLS the result was 640 pM (6 of 6 replicates; controls 0 of 18).

Nonspecific signal, from three strains lacking the peptide, appeared in 4% of pairings of all light chain designs, centred on 430 nM (5% of these signals below 38 nM); values are not corrected for it. Also given: how often the same scFv was detected with the empty control strains.
The authors' rule: three or more of the six replicates give a measured affinity, fewer mean a poor binder.